According to ChEMBL document CHEMBL1132933, “Protease inhibitors: synthesis and QSAR study of novel classes of nonbasic thrombin inhibitors incorporating sulfonylguanidine and O-methylsulfonylisourea moieties at P1” (J Med Chem, 2000):

Molecular target: Prothrombin (Homo sapiens, UniProt P00734)
Assay: Inhibitory activity against human thrombin (using Chromozym TH as the substrate)

Row | Ki [nM] | SMILES
1 | 19 | CC1CNc2c(cccc2S(=O)(=O)N[C@@H](CCCNC(=N)N)C(=O)N2CC[C@@H](C)C[C@@H]2C(=O)O)C1 (some centres not stated) [ARGATROBAN]
2 | 1200 | CN(C)S(=O)(=O)N=C(N)N
